How the values were obtained:
[1] = target: endogenous full length AR (Homo sapiens (Human), UniProt P10275, T878A); assay: mmTV-luciferase reporter assay, endogenous AR in LNCaP cells; format: cell-based
[2] = system: xenograft model of human prostate cancer; details: compared with MDV3100 and RD162; cited from earlier work
[3] = target: full length AR (Homo sapiens (Human), UniProt P10275); assay: mmTV-luciferase reporter assay, full length AR in HeLa cells; format: cell-based
[4] = target: AR ligand-binding domain (AR LBD) (Homo sapiens (Human), UniProt P10275); assay: Gal4-luciferase reporter assay, Gal-AR LBD in HeLa cells; format: cell-based

Protein sequences, listed by entry. Tags and fused reporters are not part of them. Chains listed by the source or under a name are the forms on record and can include a tag or linker. Residues count along the entry.
UniProt P10275, whole entry T878A: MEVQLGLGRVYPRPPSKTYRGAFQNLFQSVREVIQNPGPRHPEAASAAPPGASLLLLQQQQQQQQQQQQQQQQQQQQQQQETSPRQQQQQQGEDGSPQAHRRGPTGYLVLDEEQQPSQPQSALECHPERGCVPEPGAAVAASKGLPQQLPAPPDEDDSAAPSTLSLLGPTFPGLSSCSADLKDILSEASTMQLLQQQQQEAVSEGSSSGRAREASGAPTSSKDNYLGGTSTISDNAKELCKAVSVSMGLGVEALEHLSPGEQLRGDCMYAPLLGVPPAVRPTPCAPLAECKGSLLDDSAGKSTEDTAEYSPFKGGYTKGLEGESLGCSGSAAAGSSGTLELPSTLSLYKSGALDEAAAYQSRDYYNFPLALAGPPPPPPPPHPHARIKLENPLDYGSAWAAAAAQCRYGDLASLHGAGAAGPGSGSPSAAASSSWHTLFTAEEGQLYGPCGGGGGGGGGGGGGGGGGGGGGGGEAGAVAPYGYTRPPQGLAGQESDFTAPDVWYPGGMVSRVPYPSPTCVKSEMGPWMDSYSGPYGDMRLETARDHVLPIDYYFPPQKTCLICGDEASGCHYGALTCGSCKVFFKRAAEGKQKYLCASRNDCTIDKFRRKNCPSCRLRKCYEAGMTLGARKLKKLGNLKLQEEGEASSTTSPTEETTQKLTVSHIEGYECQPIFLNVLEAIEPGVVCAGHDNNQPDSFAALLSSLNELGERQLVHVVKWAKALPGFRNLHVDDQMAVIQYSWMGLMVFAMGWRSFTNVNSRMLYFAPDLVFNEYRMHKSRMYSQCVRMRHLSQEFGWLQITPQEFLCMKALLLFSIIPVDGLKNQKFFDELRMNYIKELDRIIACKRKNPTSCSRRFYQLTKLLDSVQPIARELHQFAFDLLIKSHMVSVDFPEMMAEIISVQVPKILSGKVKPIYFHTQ
UniProt P10275, other isoform, or with tags, fused parts or gaps: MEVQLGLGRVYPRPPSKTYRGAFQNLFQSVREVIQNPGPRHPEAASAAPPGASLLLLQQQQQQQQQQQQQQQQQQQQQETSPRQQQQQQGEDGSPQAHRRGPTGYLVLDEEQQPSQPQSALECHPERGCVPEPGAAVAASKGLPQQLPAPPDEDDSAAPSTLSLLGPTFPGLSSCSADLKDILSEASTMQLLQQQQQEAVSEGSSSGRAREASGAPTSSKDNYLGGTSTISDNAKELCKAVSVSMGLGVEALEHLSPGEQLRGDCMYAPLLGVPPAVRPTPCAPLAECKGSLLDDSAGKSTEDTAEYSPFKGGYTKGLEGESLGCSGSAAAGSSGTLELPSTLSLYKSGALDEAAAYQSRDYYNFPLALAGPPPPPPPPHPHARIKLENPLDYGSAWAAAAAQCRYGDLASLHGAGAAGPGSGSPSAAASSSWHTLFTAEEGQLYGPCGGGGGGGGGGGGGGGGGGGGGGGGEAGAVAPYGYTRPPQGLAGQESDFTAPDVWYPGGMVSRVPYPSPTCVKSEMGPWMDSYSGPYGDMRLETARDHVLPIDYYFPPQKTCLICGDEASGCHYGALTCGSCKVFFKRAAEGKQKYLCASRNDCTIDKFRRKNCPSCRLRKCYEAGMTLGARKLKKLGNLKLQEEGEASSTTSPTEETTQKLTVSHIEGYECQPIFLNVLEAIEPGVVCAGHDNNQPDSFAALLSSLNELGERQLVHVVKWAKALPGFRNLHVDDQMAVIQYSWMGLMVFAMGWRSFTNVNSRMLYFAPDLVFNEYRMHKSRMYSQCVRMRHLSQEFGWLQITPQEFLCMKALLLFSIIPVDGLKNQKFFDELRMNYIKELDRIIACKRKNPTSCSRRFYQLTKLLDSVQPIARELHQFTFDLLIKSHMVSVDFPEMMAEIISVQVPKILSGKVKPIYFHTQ
UniProt P10275, 669-900: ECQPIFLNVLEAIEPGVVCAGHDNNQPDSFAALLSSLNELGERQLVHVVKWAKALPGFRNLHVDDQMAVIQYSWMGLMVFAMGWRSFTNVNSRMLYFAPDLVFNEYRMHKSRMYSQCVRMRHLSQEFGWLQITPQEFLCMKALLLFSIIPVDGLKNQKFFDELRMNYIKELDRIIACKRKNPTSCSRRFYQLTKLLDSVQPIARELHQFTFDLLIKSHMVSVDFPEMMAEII

C[C@](O)(CS(=O)(=O)c1ccc(F)cc1)C(=O)Nc1cnc(C#N)c(C(F)(F)F)c1
IC50 [1]: 140 ± 100 nM

CNC(=O)c1ccc(N2C(=S)N(c3cnc(C#N)c(C(F)(F)F)c3)C(=O)C23CCC3)cc1F [ARN-509]
efficacy in xenograft model of human prostate cancer [2]: greater efficacy

C[C@](O)(CS(=O)(=O)c1ccc(F)cc1)C(=O)Nc1cc(C(F)(F)F)c([N+](=O)[O-])cn1 [FC 4.129]
Fold chg (FL) [3]: 0.12 | Fold chg (LBD) [4]: 0.19

— patent US10053433B2, “Androgen receptor antagonists” (THE REGENTS OF THE UNIVERSITY OF CALIFORNIA, priority 2014, dated 2018)
